Measurements as given in patent US4329353A (priority 1981, dated 1982).

test system: norepinephrine-induced mortality; assay: norepinephrine (NOR) test in rats (combined APO-TRY-NOR test); conditions: Table 3; rat; s.c. per method; norepinephrine 1.25 mg/kg i.v. 120 min after compound
Protocol: I. The combined apomorphine (APO)-, tryptamine (TRY)- and norepinephrine (NOR) test in rats.
The experimental animals used in this test were adult male Wistar rats (weight 240±10 g). After an overnight fast, the animals were treated subcutaneously (1 ml/100 g) with an aqueous solution of the compound under investigation (time=zero) and put in isolated observation cages. Thirty minutes thereafter (time=30 minutes) 1.25 mg/kg of apomorphine hydrochloride (APO) was injected intravenously and the rats were observed over a 1 hour period for the presence or absence of the following apomorphine-induced phenomena: agitation and stereotypic chewing. At the end of this 1 hour period (time=90 minutes) the same animals were injected intravenously with 40 mg/kg of tryptamine (TRY) and the presence of the typical tryptamine-induced bilateral tonic seizures was noted. Two hours after pretreatment (time=120 minutes) finally, the same animals were challenged with 1.25 mg/kg intravenously of norephinephrine (NOR) and possible mortality was looked for up to 60 minutes later.
The tables 1, 2 and 3 give the ED50 -values of a number of the compounds under consideration. As used herein, the ED50 -value represents the dose which protects 50% of the animals from apomorphine-, tryptamine- or norepinephrine-induced phenomena.

Row | Structure (SMILES) | ED50 -(NOR)
1 | CN(C)C(=O)C1(c2ccc(F)cc2)CCC(N2CCC(n3c(=O)[nH]c4ccccc43)CC2)CC1 (stereo not shown) | 1.25 mg/kg
2 | COc1ccc(C2(C(=O)N(C)C)CCC(N3CCC(n4c(=O)[nH]c5ccccc54)CC3)CC2)cc1 (stereo not shown) | 5 mg/kg
3 | CCOC(=O)C1(c2ccc(F)cc2)CCC(N2CCC(n3c(=O)[nH]c4ccccc43)CC2)CC1 (stereo not shown) | 2.5 mg/kg
4 | CCOC(=O)C1(c2ccccc2)CCC(N2CCC(n3c(=O)[nH]c4ccccc43)CC2)CC1 (stereo not shown) | 1.25 mg/kg
